The experiment has as its target Protein farnesyltransferase (Homo sapiens, UniProt P49354+P49356). As to the kind of experiment: Inhibition of Farnesyltransferase. Type of experiment: protein-complex assay.

SMILES strings stand for the structures.

The results in this text go back to ChEMBL document CHEMBL1132239, “Tricyclic farnesyl protein transferase inhibitors: crystallographic and calorimetric studies of structure-activity relationships” (J Med Chem, 1999).

A word on the IC50: it is the concentration that inhibits the measured activity by half. Low readings indicate inhibition by little substance, high ones a need for much substance. On to `NC(=O)N1CCC(CC(=O)N2CCC([C@@H]3c4ncc(Br)cc4CCc4cc(Cl)cc(Br)c43)CC2)CC1`, for which the IC50 is 378 nM.
